Source: patent US8945527B2, “Degradable compounds and methods of use thereof, particularly with particle replication in non-wetting templates” (The University of North Carolina at Chapel Hill, priority 2008, dated 2015)

Experiment: Release of entrapped rhodamine-B from 5 μm crosslinked particles in buffer, monitored by UV spectrometer
Format: physicochemical
Settings: 37° C.; for relative rates of release of rhodamine-B: endosomal pH (pH 5.0 buffer), 5 μm particles made with the crosslinker
Description: Each particle was degraded at 37° C. in either pH 5.0 buffer (used to show effects at endosomal pH) or pH 7.4 buffer (used to show effects at normal physiologic pH). The release of entrapped rhodamine-B was monitored by UV spectrometer at a wavelength of 552 nm. The release profile for each crosslinker (the compounds of Formulas (7)-(11)) is shown in FIG. 2 through FIG. 6, respectively.

| Substance | relative rates of release of rhodamine-B | release rate / degradation of particles made with the crosslinker (in words) (endosomal pH conditions, 5 μm particles) |
| --- | --- | --- |
| Octa-ethylene Glycol Diisopropyl Silyl Ether [PEG-8-DIS] | DMS>>PEG-8-DES≧DES>>PEG-8-DIS≧DIS | – |
| Octa-ethylene Glycol Diethyl Silyl Ether [PEG-8-DES] | DMS>>PEG-8-DES≧DES>>PEG-8-DIS≧DIS | ideal release rates |
